Values of other authors, collected in patent US6197788A, “(-)-mefloquine to block puringergic receptors and to treat movement or neurodegenerative disorders” (Vernalis Research Limited, priority 1997, dated 2001).

System: striatal acetylcholine
Conditions: cited from earlier work

CCCN1CCC[C@@H]2Cc3n[nH]cc3C[C@H]21 [quinpirole]
in vivo release of striatal acetylcholine: attenuate
ex vivo striatum acetylcholine content (in vivo): increase
